From paper PMC3867539 (Angewandte Chemie (International ed. in English), 2013)

Tested on: ON=CCc1c[nH]c2ccccc12
Test: cells, lysate or membranes
Conditions: NADPH, ATR1 reductase

CYP71A13 (Arabidopsis thaliana)
Km: 21.4 ± 2.7 µM
